Assay results: US8263607B2, “1-substituted tetrahydroisoquinoline compound” (Astellas Pharma Inc., priority 2007, dated 2012)

System: loperamide-induced bead transit delay
Assay: Spastic constipation model (loperamide-induced colorectal bead transit delay test in mice)
Type: in vivo, mouse (ddY, male)
Details: 3 mg/kg oral, concurrently with loperamide 0.3 mg/kg s.c.; bead excretion time
Protocol: A 3-mm diameter glass bead is deeply inserted at a depth of 2 cm into the anus of the mouse (ddY, male, 6 weeks old), and the time taken for excretion of the bead is measured. […] With improving effects on the loperamide-induced bead transit delay, a bowel movement-improving action of the test compound on spastic constipation was evaluated. The test compound was orally administered concurrently with administration of loperamide (30 minutes before the insertion of the bead). The assessment of the test compound was made from calculation of an improvement rate in the bead excretion time of the test compound-treated/loperamide-treated group, by taking the bead excretion time of the non-test compound treated/non-loperamide treated (vehicle-treated/vehicle-treated) group as 100%, and by taking the bead excretion time of the non-test compound treated/loperamide-treated (vehicle-treated/loperamide-treated) group as 0%.

Which Inhibition rate does the source give for O=C(CNCC1(O)CCCCC1)N1CCc2ccccc2[C@@H]1C1CCCCC1 [Example 568] here?
The Inhibition rate was 83%.
